Biological target: T1, 5-HT3 receptor (Rattus norvegicus, UniProt P35563)
T1 construct: Brain cortices are obtained from male rats and a membrane fraction prepared by standard techniques; from tissue; host or cells: rat brain cortex membranes
Experiment: Serotonin (5-HT3) radioligand receptor binding assay ([3H]-GR65630, rat brain cortex membranes)
Experimental: 5-HT3 antagonism can be determined by the radioligand receptor binding assay as described herein and in the in vivo Bezold-Jarisch reflex procedure.
GR65630 binds to the 5-HT3 receptor. Brain cortices are obtained from male rats and a membrane fraction prepared by standard techniques. 0.04 mg of membrane prep is incubated with 0.2 nM [^3 H]-GR656630 for 60 minutes at 22° C. […] Membranes are filtered and washed 3 times and the filters are counted to determine [3H]-GR65630 specifically bound.*
Kilpatrick G. J., Jones B. J. and Tyers M. B. Identification and distribution of 5-HT3 receptors in rat brain using radioligand binding. Nature, 330: 746-748, 1987.

Chains of the proteins cited; added tags and fusions are not shown. Residues count along the entry.
UniProt P35563, 24-483: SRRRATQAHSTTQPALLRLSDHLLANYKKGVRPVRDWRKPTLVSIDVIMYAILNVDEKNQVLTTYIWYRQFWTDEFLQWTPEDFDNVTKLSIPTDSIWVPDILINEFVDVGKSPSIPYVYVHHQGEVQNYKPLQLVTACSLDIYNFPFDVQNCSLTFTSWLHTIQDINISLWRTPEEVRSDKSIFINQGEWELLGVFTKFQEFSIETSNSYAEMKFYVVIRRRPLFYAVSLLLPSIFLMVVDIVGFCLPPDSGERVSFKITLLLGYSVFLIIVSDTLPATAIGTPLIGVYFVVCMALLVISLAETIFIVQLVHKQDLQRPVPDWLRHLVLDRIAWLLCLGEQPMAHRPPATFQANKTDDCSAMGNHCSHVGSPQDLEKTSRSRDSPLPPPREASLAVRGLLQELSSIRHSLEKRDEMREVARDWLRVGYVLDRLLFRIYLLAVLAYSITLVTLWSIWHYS

NCCc1c[nH]c2ccc(O)cc12 [Example 5-HT, serotonin]
Ki: 0.39 nM

— US5516782A, “New meso-azacyclic aromatic acid amides and esters as novel serotonergic agents” (G. D. Searle & Co., priority 1995, dated 1996)
